This series can be described thus: Evaluation of the switching behaviour of ASHS systems (carboxylic acid/base/water) under air and 1 bar of CO2. The class given is physicochemical. As to conditions: KOH instead of NaOH; 2:1 H2O:acid mass ratio; 1 bar CO2. How it is done: Base solutions were prepared by combining the desired base and water (mass for components measured in an analytical scale) into either a 10 or 25 mL graduated cylinder (containing a magnetic stir bar) depending on the final volume of the mixture obtained. The carboxylic acid (mass measured using an analytical balance prior to addition) being studied was added to the base solution, and the mixture was mixed with the help of a magnetic stir plate. The amount of base and water used were selected based on the acid:base:water ratio desired. Experiments were carried out using stoichiometric and substoichiometric amounts of the base relative to the number of mols of acid added. In addition, the quantity of water used was adjusted based on the acid:water mass ratio desired. A typical experiment would contain 1 g of the carboxylic acid; between 0.4 and 1 mol of base per mol of acid; and a water mass varying from 1 to 9.5 g.
During a typical experiment, CO2 would be added for approximately 2 h at atmospheric pressure. At the end of the 2 h, the sparge tube would be removed, and the number and volume of the phases obtained would be recorded. The pH was once again recorded. For mixtures with only 1 phase, the pH of that phase was recorded. While for mixtures with 2 phases, the pH of the aqueous phase was recorded. […]

Structures are written as SMILES.

With `CCCCC(CC)C(=O)O` (stereo not shown) [EHA, 2-ethylhexanoic acid], the “Range of base:acid mole ratios with switchable behaviour” value was “broadens the successful range”.

Source of the values: patent US12605653B2, “Anionic switchable hydrophilicity solvents” (QUEEN'S UNIVERSITY AT KINGSTON, priority 2022, dated 2026).
